{
  "source": "patent US20110319398A1",
  "about": "(priority 2010, published 2011)",
  "system": "E. coli expressing YadA",
  "assay": "Adherence of E. coli expressing YadA to HEp-2 cells (ELISA)",
  "conditions": "60 μM C20, pDS132-yadA",
  "data": [
    {"smiles": "Cc1nn(-c2ccccc2)c(C)c1/N=C/c1c(O)ccc2ccccc12", "note": "[Compound C20, 1-[(E)-(3,5-dimethyl-1-phenyl-pyrazol-4-yl)iminomethyl]naphthalen-2-ol]", "values": [
      {"measurement": "Adherence of E. coli expressing YadA to HEp-2 cells", "value": "did not block the ability of E. coli expressing YadA to adhere"}
    ]}
  ]
}
